One compound from ChEMBL document CHEMBL5380868, “Filling a nick in NIK: Extending the half-life of a NIK inhibitor through structure-based drug design” (Bioorg Med Chem Lett, 2023) can be followed below.

This assay in a line: Selectivity index, ratio of IC50 for inhibition of PKD1 (unknown origin) to IC50 for inhibition of NIK (unknown origin).

SMILES strings stand for the structures.

Consider `CN1C(=O)[C@](O)(C#Cc2cccc(-n3nc(C(N)=O)c4cccnc43)c2)[C@H]2C[C@H]21`, for which the Ratio IC50 turned out to be 100.
